Target: Acetylcholinesterase (Electrophorus electricus) (UniProt O42275)
Assay: Potency index, ratio of rivastigmine IC50 to compound IC50 for electric eel AChE

Chains of the proteins cited; added tags and fusions are not shown. Lines headed by an entry give the natural chain unless they say otherwise; changes in a name come on top.
UniProt O42275: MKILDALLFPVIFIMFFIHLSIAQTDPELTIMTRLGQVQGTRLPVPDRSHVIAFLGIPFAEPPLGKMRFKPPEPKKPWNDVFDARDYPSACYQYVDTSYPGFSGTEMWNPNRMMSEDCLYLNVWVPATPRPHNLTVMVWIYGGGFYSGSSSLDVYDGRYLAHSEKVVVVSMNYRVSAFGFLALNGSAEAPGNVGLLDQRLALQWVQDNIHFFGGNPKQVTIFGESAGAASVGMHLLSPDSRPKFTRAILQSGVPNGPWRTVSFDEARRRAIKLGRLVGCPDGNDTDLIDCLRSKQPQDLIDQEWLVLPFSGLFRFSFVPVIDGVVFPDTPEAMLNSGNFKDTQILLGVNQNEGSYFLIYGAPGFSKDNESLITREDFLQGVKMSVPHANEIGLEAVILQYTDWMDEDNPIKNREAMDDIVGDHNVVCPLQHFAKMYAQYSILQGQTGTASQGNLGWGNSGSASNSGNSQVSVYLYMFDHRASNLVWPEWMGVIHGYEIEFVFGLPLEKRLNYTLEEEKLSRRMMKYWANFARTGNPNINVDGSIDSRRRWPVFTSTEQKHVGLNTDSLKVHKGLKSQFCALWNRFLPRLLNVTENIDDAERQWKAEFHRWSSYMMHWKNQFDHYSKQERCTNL

CN(C)c1ccc(/C=C/C(=O)c2ccc(OC(=O)N3CCCC3)cc2O)cc1
Ratio IC50: 2

Reference: ChEMBL document CHEMBL3875206, “Design, synthesis and biological evaluation of 4'-aminochalcone-rivastigmine hybrids as multifunctional agents for the treatment of Alzheimer's disease” (Bioorg Med Chem, 2017)
